Tests used:
Jag1-Notch1 signalling = assay: Co-culture Notch luciferase reporter assay, Jag1-induced; assay type: cell-based, human; details: for inhibition of Jag1-induced Notch signaling compared with N1: peptides 25 μM; for inhibition of Jag1-induced Notch1 signalling, dose response: reporter assay, DAPT 50 μM
Protocol: Jag1-Notch interaction is measured using a co-culture assay with one cell line expressing the Notch ligand Jagged1 (Jag1) and a second expressing Notch (either Notch1 or Notch2). A firefly luciferase reporter plasmid with 12 upstream CBF-1 binding site was transfected into signalling-receiving cells to report on Notch signalling (FIG. 1D). Peptides were tested for their activity in inhibiting Jag1-induced Notch signalling. Complete inhibition is equivalent to the background signal seen without induction (−Jag1). […] N1 (SEQ ID NO: 10) is a 15-mer derived from the EGF-like repeat 12 of Notch1 (C467-G481). This is consistent with the structural information that EGF-like repeat 12 of Notch1 is near the MNNL domain of Jag1 (FIGS. 1B and C).
(§1) Specificity of N1 (SEQ ID NO: 10) peptide in inhibiting different Notch ligand-induced Notch signaling was investigated using in vitro co-culture assay. HEK293T or CHO cells expressing Notch ligand (either Jag1, DLL1 or DLL4) are co-cultured with Notch1- or Notch2-expressing cells. Notch1 and Notch2 signalling can be measured by either luciferase reporter assay or by the formation of NICD1 and NICD2. […] Half inhibition is reached at between 50 to 100 μM. […] This contrasts with DAPT which affects all the above interactions.
(§2) HEK-293T-Jagged-1 cells were seeded in 24-well plates in triplicate per sample group, and human HCT-116 cells were seeded in one 60 mm dish. Cells were allowed to settle, and were transfected the following day after the medium was changed to be antibiotic free. HCT-116 cells were transfected with 12×CSL-Luc and Renilla-Luc, using Lipofectamine® 3000 (Invitrogen™), according to the manufacturer's instructions. After 24 hours, HCT-116 cells were scraped and 2.5×10^4 cells in 1 mL complete medium per well were added to both 24-well plates. Peptides were treated to cells with the desired concentrations. N—[N-(3,5-difluorophenacetyl)-L-alanyl]-S-phenylglycine t-butyl ester (DAPT) was used as positive control. Cells were co-cultured for 12 hours before measure the luciferase activity. After incubation, cells were lysed with luciferase lysis buffer. Notch activity in cells expressing the 12×CSL-Luc reporter construct was measured by a luciferase assay using Dual-Luciferase® Reporter Assay System (Promega).

Amino acid sequences for entries named in this document (tags omitted). Residues count along the entry.
UniProt P78504, 34-1218: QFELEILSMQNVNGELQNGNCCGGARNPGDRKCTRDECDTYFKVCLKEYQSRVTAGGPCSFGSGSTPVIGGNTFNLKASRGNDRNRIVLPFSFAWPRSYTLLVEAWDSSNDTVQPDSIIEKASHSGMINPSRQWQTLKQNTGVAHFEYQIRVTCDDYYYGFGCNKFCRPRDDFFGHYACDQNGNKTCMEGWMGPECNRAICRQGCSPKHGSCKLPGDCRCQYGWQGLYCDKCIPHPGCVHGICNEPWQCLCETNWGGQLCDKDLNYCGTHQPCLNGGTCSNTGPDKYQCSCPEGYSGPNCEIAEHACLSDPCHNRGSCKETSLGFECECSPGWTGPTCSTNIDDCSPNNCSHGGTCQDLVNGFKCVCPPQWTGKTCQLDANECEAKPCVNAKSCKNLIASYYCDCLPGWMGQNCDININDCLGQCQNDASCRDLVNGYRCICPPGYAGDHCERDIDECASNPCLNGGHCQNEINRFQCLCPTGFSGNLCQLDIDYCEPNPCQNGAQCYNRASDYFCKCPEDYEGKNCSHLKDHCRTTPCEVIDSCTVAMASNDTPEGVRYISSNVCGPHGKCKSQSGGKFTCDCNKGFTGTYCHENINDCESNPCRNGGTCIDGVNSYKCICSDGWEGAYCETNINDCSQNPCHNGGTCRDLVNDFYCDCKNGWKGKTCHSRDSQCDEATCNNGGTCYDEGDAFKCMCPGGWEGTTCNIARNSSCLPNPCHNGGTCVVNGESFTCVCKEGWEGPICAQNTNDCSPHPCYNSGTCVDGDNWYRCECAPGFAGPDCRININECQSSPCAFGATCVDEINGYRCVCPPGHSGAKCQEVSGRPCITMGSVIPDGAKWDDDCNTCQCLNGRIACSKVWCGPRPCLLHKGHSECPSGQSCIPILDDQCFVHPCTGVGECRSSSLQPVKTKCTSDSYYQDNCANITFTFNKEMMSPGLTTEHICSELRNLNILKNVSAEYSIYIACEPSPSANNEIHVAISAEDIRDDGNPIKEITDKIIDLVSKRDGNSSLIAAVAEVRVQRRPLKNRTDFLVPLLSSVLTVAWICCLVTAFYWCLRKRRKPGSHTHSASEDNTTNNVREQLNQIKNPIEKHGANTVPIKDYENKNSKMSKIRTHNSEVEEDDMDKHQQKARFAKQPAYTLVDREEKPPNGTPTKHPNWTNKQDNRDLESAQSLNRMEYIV

S1 = assay type: cell-based, human
Protocol: (§3) HCT-116, HCT-15, S1-M1-80, S1, L929, HEK293T-Jagged-1 were seeded in each well of a 96-well plate with a series of concentrations (a serial dilution from 1000μM to 0.5 μM) of peptides or drugs including DAPT, Topotecan at 37° C. with 5% CO2 in a humidified incubator for 3 days. Percentage of survival was determined by MTS assay as described.

S1-M1-80 cells [1] = assay type: cell-based, human
Protocol: as §3

human Jag1 = target: T1, human Jag1 (Homo sapiens, UniProt P78504); assay: In vitro pull-down assay with biotinylated peptide; assay type: binding
T1 construct: The human embryonic kidney cells 293T stably expressed full length human Jagged-1 (HEK293T-Jagged-1); expressed in transfected cells
Protocol: HEK293T-Jagged1 cells were lysed in 1×RIPA lysis buffer (20 mMTris-HCl (pH 7.5) 150 mM NaCl, 1 mM Na2EDTA, 1 mM EGTA, 1% NP-40, 1% sodium deoxycholate, 2.5 mM sodium pyrophosphate, 1 mM β-glycerophosphate, 1 mM Na3VO4). One microgram of biotin-labeled peptides and streptavidin-conjugated magnetic beads (Promega) was used to pull down human Jag1. The resulting proteins were resolved on SDS-PAGE and detected with an anti-Jagged1 antibody.

NICD1 [2] = assay: NICD1 formation in HCT-116; assay type: cell-based, human; details: peptides 100 μM
Protocol: (§4) This panel of peptides was also tested for their cytotoxic activities against two human colorectal cell lines (HCT-116 and HCT-15). At a concentration of 100 μM, N1 (SEQ ID NO: 10) is the only peptide that is cytotoxic to HCT-116 and HCT-15 cells (FIGS. 2B and C). Notch signaling results in the release of NICD1 from the membrane-bound Notch receptor.
(§5) The cleaved Notch1 (Val1744) (D3B8) rabbit monoclonal antibody (CST) and Notch2 (Cleaved Ala1734) rabbit monoclonal antibody at 1:1000 dilution were used to detect human Notch intracellular domain (NICD1) and Notch2 intracellular domain (NICD2), respectively. β-actin was detected using a mouse monoclonal antibody (Santa Cruz Biotechnology) at 1:3000 dilution.

S1-M1-80 cells [3] = assay: Clonogenicity assay, S1-M1-80; assay type: cell-based, human
Protocol: (§6) The procedure for colony formation assay consists of following steps. An appropriate number of cells per well were seeded on a 6-well plate in duplicate. The number of cells for seeding should be related to the aggressiveness of the treatment. The cells were incubated for 12 hours in a CO2 incubator at 37° C. and allow cells to attach to the plate. The cells were treated with peptides or (DAPT) to required concentrations. The cells were incubated in a in a CO2 incubator at 37° C. for about 10 days until cells in control well have formed colonies which are of a substantially good size (the minimum score is 100 cells per colony). After the incubation, the medium was removed and cells were rinsed with 5 ml 1×PBS (phosphate buffered saline. pH 7.2). The cells were then fixed with 1 ml methanol at room temperature for 10 min. After fixation, the cells were stained with 0.5% crystal violet solution and incubated at room temperature for 1 h. After staining, the plates were immersed in deionized water to rinse off crystal violet and air-dried at room temperature for overnight. The dry plates were pictured with scanner. The number of colonies in each well was counted by cell counter software.

DLL4-induced NICD1 = assay: Co-culture assay, DLL4-induced NICD1 level; assay type: cell-based, human
Protocol: as §1, §5

DLL4-Notch1 signalling = assay: Co-culture Notch luciferase reporter assay, DLL4-induced; assay type: cell-based, human; details: DAPT 50 μM
Protocol: as §1
as §2, with “Cells were co-cultured for 12 hours before measure the luciferase activity. After incubation, cells were lysed with luciferase lysis buffer.” left out

DLL1-Notch1 signalling = assay: Co-culture Notch luciferase reporter assay, DLL1-induced; assay type: cell-based, human; details: DAPT 50 μM
Protocol: as §1
as §2, with “Cells were co-cultured for 12 hours before measure the luciferase activity. After incubation, cells were lysed with luciferase lysis buffer.” left out

NICD1 [4] = assay: NICD1 formation in HCT-15; assay type: cell-based, human; details: peptides 100 μM
Protocol: as §4, §5

HCT-15 = assay: Clonogenicity assay, HCT-15; assay type: cell-based, human; details: data not shown
Protocol: as §6

NICD2 = assay: Co-culture assay, NICD2 formation (Jag1-Notch2); assay type: cell-based, human
Protocol: as §1, §5

HCT-116 = assay: Clonogenicity assay, HCT-116; assay type: cell-based, human; details: data not shown
Protocol: as §6

Jag1-induced NICD1 = assay: Co-culture assay, Jag1-induced NICD1 level; assay type: cell-based, human; details: N1 at 50 μM
Protocol: as §1, §5

DLL1-induced NICD1 = assay: Co-culture assay, DLL1-induced NICD1 level; assay type: cell-based, human
Protocol: as §1, §5

HEK-293T-Jagged-1 cells = assay type: cell-based, human
Protocol: as §3

| SMILES | inhibition of Jag1-induced Notch signaling compared with N1 (Jag1-Notch1 signalling) | IC50 (S1) [µM] | IC50 (S1-M1-80 cells [1]) [µM] | inhibition of DLL4-Notch1 signalling (DLL4-Notch1 signalling) | inhibition of DLL1-Notch1 signalling (DLL1-Notch1 signalling) | inhibition of Jag1-induced Notch1 signalling, dose response (Jag1-Notch1 signalling) | Jag1-induced NICD1 level (Jag1-induced NICD1) | other results |
| --- | --- | --- | --- | --- | --- | --- | --- | --- |
| CC[C@H](C)[C@H](NC(=O)[C@H](CCC(N)=O)NC(=O)[C@H](CC(=O)O)NC(=O)[C@H](CC(C)C)NC(=O)[C@H](CS)NC(=O)[C@@H](N)[C@@H](C)O)C(=O)NCC(=O)N[C@@H](CCC(=O)O)C(=O)N[C@@H](Cc1ccccc1)C(=O)N[C@@H](CCC(N)=O)C(=O)N[C@@H](CS)C(=O)N[C@H](C(=O)N[C@@H](CS)C(=O)N[C@@H](CCSC)C(=O)N1CCC[C@H]1C(=O)NCC(=O)O)[C@@H](C)CC [Peptide N1T466, TCLDQIGEFQCICMPG] | slight improvement | > 100 | > 50 | – | – | – | – | – |
| CC[C@H](C)[C@H](NC(=O)[C@H](CCC(N)=O)NC(=O)[C@H](CC(=O)O)NC(=O)[C@H](CC(C)C)NC(=O)[C@H](CS)NC(=O)[C@@H](N)CCCCN)C(=O)NCC(=O)N[C@@H](CCC(=O)O)C(=O)N[C@@H](Cc1ccccc1)C(=O)N[C@@H](CCC(N)=O)C(=O)N[C@@H](CS)C(=O)N[C@H](C(=O)N[C@@H](CS)C(=O)N[C@@H](CCSC)C(=O)N1CCC[C@H]1C(=O)NCC(=O)O)[C@@H](C)CC [Peptide N1T466K, KCLDQIGEFQCICMPG] | slight improvement | > 100 | > 50 | – | – | – | – | – |
| CC[C@H](C)[C@H](NC(=O)[C@H](CCC(N)=O)NC(=O)[C@H](CC(=O)O)NC(=O)[C@H](CC(C)C)NC(=O)[C@H](CS)NC(=O)[C@@H](N)CCC(N)=O)C(=O)NCC(=O)N[C@@H](CCC(=O)O)C(=O)N[C@@H](Cc1ccccc1)C(=O)N[C@@H](CCC(N)=O)C(=O)N[C@@H](CS)C(=O)N[C@H](C(=O)N[C@@H](CS)C(=O)N[C@@H](CCSC)C(=O)N1CCC[C@H]1C(=O)NCC(=O)O)[C@@H](C)CC [Peptide N1T466Q, QCLDQIGEFQCICMPG] | slight improvement | > 100 | > 50 | – | – | – | – | – |
| CC[C@H](C)[C@H](NC(=O)[C@H](CCC(N)=O)NC(=O)[C@H](CC(=O)O)NC(=O)[C@H](CC(C)C)NC(=O)[C@H](CS)NC(=O)[C@@H](N)CC(C)C)C(=O)NCC(=O)N[C@@H](CCC(=O)O)C(=O)N[C@@H](Cc1ccccc1)C(=O)N[C@@H](CCC(N)=O)C(=O)N[C@@H](CS)C(=O)N[C@H](C(=O)N[C@@H](CS)C(=O)N[C@@H](CCSC)C(=O)N1CCC[C@H]1C(=O)NCC(=O)O)[C@@H](C)CC [Peptide N1T466L, LCLDQIGEFQCICMPG] | biggest improvement | > 50 | 8.2 ± 0.3 | did not interfere | did not interfere | inhibited Jag1-induced Notch1 signaling in dose dependent manner | significantly decreased expression level of NICD1 | IC50 (HEK-293T-Jagged-1 cells): > 100 µM |

The next lines start with results.

| inhibition of Jag1-induced Notch signaling compared with N1 (Jag1-Notch1 signalling) | IC50 (S1) [µM] | IC50 (S1-M1-80 cells [1]) [µM] | inhibition of DLL4-Notch1 signalling (DLL4-Notch1 signalling) | inhibition of DLL1-Notch1 signalling (DLL1-Notch1 signalling) | SMILES | inhibition of Jag1-induced Notch1 signalling, dose response (Jag1-Notch1 signalling) | Jag1-induced NICD1 level (Jag1-induced NICD1) | other results |
| --- | --- | --- | --- | --- | --- | --- | --- | --- |
| – | > 100 | > 100 | – | – | CC[C@H](C)[C@H](NC(=O)[C@H](CCC(N)=O)NC(=O)[C@H](CC(=O)O)NC(=O)[C@H](CC(C)C)NC(=O)[C@@H](N)CS)C(=O)O [Peptide N110, CLDQI] | – | – | – |
| – | > 50 | 16.3 ± 0.6 | cannot inhibit | cannot inhibit | CC[C@H](C)[C@H](NC(=O)[C@H](CCC(N)=O)NC(=O)[C@H](CC(=O)O)NC(=O)[C@H](CC(C)C)NC(=O)[C@@H](N)CS)C(=O)NCC(=O)N[C@@H](CCC(=O)O)C(=O)N[C@@H](Cc1ccccc1)C(=O)N[C@@H](CCC(N)=O)C(=O)N[C@@H](CS)C(=O)N[C@H](C(=O)N[C@@H](CS)C(=O)N[C@@H](CCSC)C(=O)N1CCC[C@H]1C(=O)NCC(=O)O)[C@@H](C)CC [Peptide N1, CLDQIGEFQCICMPG] | inhibited Jag1-induced Notch1 signalling in a dose-dependent manner | markedly reduced | binding to Jag1 (immunoprecipitation of Jag1 from HEK293T-Jagged1 cells) (human Jag1): can be immunoprecipitated; NICD1 formation in HCT-116 (NICD1 [2]): almost complete elimination of NICD1; colony formation of S1-M1-80, dose response (S1-M1-80 cells [3]): reduced the colony formation activity; disruption of Jag1-induced Notch signalling (reporter) (Jag1-Notch1 signalling; screening, peptides 100 μM): can disrupt Jag1-Notch1 signalling; DLL4-induced NICD1 level (DLL4-induced NICD1): no effect; NICD1 formation in HCT-15 (NICD1 [4]): almost complete elimination of NICD1; colony formation activity in HCT-15 (HCT-15): reduced the colony formation activity; NICD2 formation (NICD2): does not affect NICD2 formation; colony formation activity in HCT-116 (HCT-116): reduced the colony formation activity; DLL1-induced NICD1 level (DLL1-induced NICD1): no effect |
